Test results as given in patent publication US20030224390A1, “Method of identifying conformation-sensitive binding peptides and uses thereof” (Karo Bio AB, priority 2000, published 2003).

Sequences of proteins named here, by UniProt entry; tags and fusion partners are left off.
UniProt P03372, whole entry: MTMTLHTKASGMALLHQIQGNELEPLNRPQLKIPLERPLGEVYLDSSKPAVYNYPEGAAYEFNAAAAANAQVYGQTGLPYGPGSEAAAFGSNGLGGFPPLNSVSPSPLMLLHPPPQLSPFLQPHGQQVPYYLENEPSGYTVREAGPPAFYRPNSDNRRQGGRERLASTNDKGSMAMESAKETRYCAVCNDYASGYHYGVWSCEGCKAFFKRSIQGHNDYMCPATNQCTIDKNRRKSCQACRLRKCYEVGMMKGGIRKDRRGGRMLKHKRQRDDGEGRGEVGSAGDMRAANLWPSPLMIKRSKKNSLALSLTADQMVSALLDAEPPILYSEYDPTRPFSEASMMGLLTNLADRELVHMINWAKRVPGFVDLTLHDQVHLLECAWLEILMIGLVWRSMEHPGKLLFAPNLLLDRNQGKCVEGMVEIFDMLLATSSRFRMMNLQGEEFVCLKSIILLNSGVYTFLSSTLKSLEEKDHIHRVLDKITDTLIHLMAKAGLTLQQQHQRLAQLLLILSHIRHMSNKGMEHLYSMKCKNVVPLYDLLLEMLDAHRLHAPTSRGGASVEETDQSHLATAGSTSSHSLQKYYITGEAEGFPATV

Biological target: ERα (Homo sapiens, UniProt P03372)
Experiment: Binding of the peptide probes to ERα in the presence of modulators (Table 15a)

CC/C(=C(\c1ccc(O)cc1)c1ccc(/C=C/C(=O)O)cc1)c1ccccc1 [GW7604]
0%: Equiv. (equivalency), peptide probe α/βI on ERα (probe α/βI, positive: % of maximum stimulation by the modulator used to isolate the probe, negative: % of reduction by ICI 182,780) | Equiv. (equivalency), peptide probe α/βIII on ERα (probe α/βIII, reference 4-OH tamoxifen, negative: % of reduction by ICI 182,780) | Equiv. (equivalency), peptide probe α/βIV on ERα (probe α/βIV, reference 4-OH tamoxifen, negative: % of reduction by ICI 182,780) | Equiv. (equivalency), peptide probe α/βV on ERα (probe α/βV, reference 4-OH tamoxifen)
